{
  "source": "patent US11364260B2",
  "about": "“Methods and compositions for administration of iron” (American Regent, Inc., priority 2006, dated 2022)",
  "key": {"[1]": {"tested_on": "patients with iron deficiency anemia or renal anemia", "test": "Safety assessments in patients with iron deficiency anemia and renal anemia", "assay_type": "in vivo, human", "settings": "iron doses 100 to 1000 mg", "protocol": "Safety assessments were made in 73 patients with iron deficiency anemia (27 single-dose, 46 repeated-dose), and 166 patients with renal anemia (3 single-dose, 163 repeated-dose) who received VIT-45 at individual iron doses of 100 mg up to 1000 mg (cumulative doses of 100 to 2200 mg)."}, "[2]": {"test": "Single dose toxicity (LD50, acute toxicity)"}},
  "data": [
    {"substance": "polynuclear iron (III)-hydroxide 4(R)-(poly-(1→4)-O-α-D-glucopyranosyl)-oxy-2(R),3(R),5(R),6-tetrahydroxy-hexanoate [VIT-45]", "values": [
      {"measurement": "safety profile versus currently available parenteral iron formulations", "setting": "[1]", "result": "equal to, or exceeding"},
      {"measurement": "safety factor relative to human dose (15 mg iron/kg b.w.)", "setting": "[2]", "result": "about 70 fold"}
    ]}
  ]
}
